# PubChem BioAssay AID1963576 (National Center for Advancing Translational Sciences (NCATS), 2024)
# Only a part is listed here, and it is no random draw. Inconclusive results are not listed. Active and inactive are the calls of the source. Calls come from the whole dose curve; as a rule, active = well fitted inhibition curve with a large enough effect; inconclusive = small, poorly fitted or top-dose-only effect; inactive = no such curve, though single readings can be large or run the other way.
# Assay: Primary qHTS assay for Inhibitors of ovarian cancer metastasis using an organotypic tumor microenvironment (TME) model.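 Note: plate controls were DMSO wells for no effect and tomatine positive control wells for full effect; nearly all actives have a fitted effect of over 65% in size.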
# Settings: SKOV3ip1-GFP adhesion/invasion on 3D omental model, fluorescence; at 45.8 µM (top of the series)
# Text: PI: Ernst Lengyel MD., Ph.D. Department of Obstetrics and Gynecology, Section of Gynecologic Oncology University of Chicago Medicine, Chicago, Illinois. The tumor microenvironment (TME) is a key determinant of metastatic efficiency. We performed a quantitative high-throughput screen (qHTS) of diverse medicinal chemistry tractable scaffolds (44,420 compounds) and pharmacologically active small molecules (386 compounds) using a layered organotypic, robust assay representing the ovarian cancer metastatic TME. This 3D model contains primary human mesothelial cells, fibroblasts, and extracellular matrix, to which fluorescently labeled ovarian cancer cells are added. Initially, 100 compounds inhibiting ovarian cancer adhesion/invasion to the 3D model in a dose-dependent manner were identified. […]
# PROTOCOL TABLE (as described by Inglese J, Shamu CE and Guy RK. 2007) SEQUENCE No. (e.g., 1, 2, 3, etc.); […] […] 11; Detection; Fluorescence, excitation filter 488 nm, emission filter 509 nm. […] The number of GFP-labeled cells analyzed using a fluorescent cytometer TTP LabTech Acumen eX3 using 488 nm excitation filter and 509 nm emission filter. […] Yasgar A, Shinn P, Jadhav A, Auld DS, Michael S, Zheng W, Austin CP, Inglese J and Simeonov A, Compound Management for Quantitative High-Throughput Screening. […]
row,SMILES,"activity change, negative = inhibition"
1,CN(CCCl)CCCl,inactive: 3.55%
